Measured values reported in publication PMC8519570.

The substances below were run against DENV2 sE WT (soluble envelope protein E of dengue virus 2, wild type) (dengue virus 2 (strain 16681)) (assay: BLI).
Substance 2D22 has a Kd of 0.48 µM.
For 3H5, the Kd was 0.0086 µM.
4G2 gave a Kd of 0.011 µM.
